Earlier results in patent publication US20070071689A1, “Advantageous combination for inhalation of nacystelyn and bronchodilators” (GALEPHAR M/F, priority 2003, published 2007).

Conditions: administration via the inhalation route

## L-Lysine N-Acetylcysteinate [NAL]
  bronchospasms (side effects): without observing any side effects (bronchospasms)
